Results as given in patent US9993529B2, “Stable formulations of a hyaluronan-degrading enzyme” (Halozyme, Inc., priority 2011, dated 2018).

Assays:
rHuPH20 = target: T1, rHuPH20 (Homo sapiens, UniProt P38567); conditions: stabilizer screen in rHuPH20/insulin formulation ([…] m-cresol, 0.2% phenol, pH 7.3±0.1); 30° C. about one week; semi-quantitative in comparison with NaCl
T1 sequence (P38567 36-482): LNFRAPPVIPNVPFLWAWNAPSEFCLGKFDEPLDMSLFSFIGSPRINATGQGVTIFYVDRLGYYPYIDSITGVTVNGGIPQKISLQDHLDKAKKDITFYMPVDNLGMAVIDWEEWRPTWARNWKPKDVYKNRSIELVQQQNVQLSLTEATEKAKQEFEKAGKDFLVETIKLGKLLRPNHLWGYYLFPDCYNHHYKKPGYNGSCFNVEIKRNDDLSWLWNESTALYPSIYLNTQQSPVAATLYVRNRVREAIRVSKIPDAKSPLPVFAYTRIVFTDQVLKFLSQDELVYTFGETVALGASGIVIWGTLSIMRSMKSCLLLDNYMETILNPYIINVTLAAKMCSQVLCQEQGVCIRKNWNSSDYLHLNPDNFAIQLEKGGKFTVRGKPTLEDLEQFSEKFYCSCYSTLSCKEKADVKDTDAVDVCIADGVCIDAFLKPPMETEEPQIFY
Procedure: The activity of a hyaluronan degrading enzyme can be assessed using methods well known in the art. […] A Hyaluronidase Reference Standard (USP) or National Formulary (NF) Standard Hyaluronidase solution can be used in an assay to ascertain the activity, in units, of any hyaluronidase. In one example, activity is measured using a microturbidity assay. […] The turbidity of the resulting sample is measured at 640 nm after an additional development period.

[1] = RP-HPLC insulin apparent solubility / percent recovery (content); conditions: stabilizer screen in rHuPH20/insulin formulation; RP-HPLC on samples stored at 5° C.; semi-quantitative in comparison with NaCl
Procedure: Apparent solubility was measured as the percent insulin recovery as compared to the initial formulations/conditions.
Samples were prepared by withdrawing 100 μL from each vial at every time point and centrifuging prior to loading. Samples were stored in an autosampler at 4° C. prior to use, and were considered stable for 3 days after preparation. All samples were tested in duplicate.
For insulin, 20 μL was injected for each HPLC run.
To determine the apparent solubility, the peak area of insulin/insulin analog main peak and desamido peak were integrated and combined together to calculate the percentage relative to the standards. […] The data were processed using Design-Expert® 7.0 (StatEase) and the “historical data” feature. Insulin percent purity was expressed as the percent of main insulin versus all insulin species.

**Q.** With Human serum albumin as the substance, how does the “Effect on rHuPH20 enzymatic activity” value (rHuPH20) read?
**A.** No effect

**Q.** And the “Effect on insulin solubility” value [1]?
**A.** No effect
